# Assay results reported in patent US20260272960A1, “[…] COMPOUNDS, PREPARATION METHOD AND USE THEREOF” (HC SYNTHETIC PHARMACEUTICAL CO., LTD., priority 2022, published 2026).
# System: histamine-contracted isolated ileal smooth muscle of guinea pigs
# Assay: Antispasmodic effect on histamine-contracted isolated ileal smooth muscle of guinea pigs
# Parameters: species or system guinea pig
# Conditions: x ± s, n = 8
# Description: The guinea pig was knocked unconscious with a wooden stick, and the abdomen was immediately dissected to separate the ileum about 15 cm in length. The contents of the intestinal segment were flushed with Tyrode's solution and placed in Tyrode's solution at a constant temperature of 37° C. for later use, and oxygen was supplied simultaneously. The experimental intestinal tract (1 cm in length) was cut and placed into 20 ml of Tyrode's solution at a constant temperature of 37° C. with a continuous oxygen supply. One end of the intestine was fixed on the ventilation hook and the other end was connected to the muscle tone transducer and led to the computer interface. The muscle tone value of the ileal smooth muscle was recorded with a BL system. The experiment was carried out after the intestinal segment contraction became stable. […] The operation was repeated 8 times. The antispasmodic percentage was calculated using the following equation.
structure (smiles),measurement,setting,value
"CN1CCC(=C2c3ccccc3CC(=O)c3sccc32)CC1 [Ketotifen, ketotifen]",Smooth muscle tone (g) After administration,3 minutes after adding 0.05 mL of compound to histamine-contracted ileum,1.50 ± 0.48 g
same,Antispasmodic percentage (%),"against histamine contraction, 3 minutes after adding the compound",56.01 ± 12.18%
